AlphaSeq binding of Ab-91 heavy chain variants to a spike HR2 peptide

The measurements come from Engelhart et al. 2022 (doi:10.1038/s41597-022-01779-4) through the FLAb antibody collection.

Target peptide (SARS-CoV-2 spike, HR2 region): PDVDLGDISGINAS

The variants keep the light chain, the linker and the frameworks of Ab-91 (scFv order VL, a (GGGGS)3 linker, VH).
VL: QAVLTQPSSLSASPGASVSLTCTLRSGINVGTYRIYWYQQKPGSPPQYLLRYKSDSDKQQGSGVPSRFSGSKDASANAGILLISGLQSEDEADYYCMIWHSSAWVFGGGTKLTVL
VH: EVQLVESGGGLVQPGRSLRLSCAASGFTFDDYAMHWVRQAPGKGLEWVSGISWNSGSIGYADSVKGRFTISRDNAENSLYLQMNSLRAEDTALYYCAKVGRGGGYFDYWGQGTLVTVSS

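The parent was found by panning a naive human phage display library on the peptide. Library AAYL51 holds single substitutions and randomly drawn double and triple substitutions in the CDRs. The assay is AlphaSeq: two haploid yeast populations carry antibody and antigen on their surface. Binding brings cells together so that they mate, and sequencing counts the barcode pairs among the diploids. Each replicate has its own calibration line, from reference interactions of the BCL2 family. Mating was done three times.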

Changes read parent residue, position, new residue, counted from the first residue of the VH shown. Values are log10 of the apparent Kd in nM; lower means stronger binding. Replicates are averaged; those with no signal do not enter the mean. A pair that was not seen in that replicate is written "ND"; this usually means weak binding, but a binder can also be missed.

changes | log10 Kd (nM) by replicate | mean, log10 nM | signal with controls
M34L Y60K | ND / ND / ND | ND | 2/9 (4.36)
G100F G102H D107S | ND / ND / ND | ND | 1/9 (4.25)
G26N T28L A61D | 5.93 / 5.07 / 5.39 | 5.46 | 5/9 (4.90)
M34L W53V N54F | ND / ND / ND | ND | 0/9
D30E G59R D107V | ND / ND / ND | ND | 0/9
T28E S55E A61E | ND / ND / ND | ND | 0/9
A33W | ND / ND / ND | ND | 0/9
Y32G S55M K65Y | 4.31 / ND / ND | 4.31 | 1/9 (3.27)
M34Q D62A G103P | 4.30 / 6.55 / ND | 5.42 | 2/9 (4.65)
A33T G102R | ND / ND / ND | ND | 1/9 (3.77)
F27A Y32G S57V | 5.50 / 4.95 / ND | 5.23 | 4/9 (5.04)
I51T G100E | ND / ND / ND | ND | 2/9 (4.02)
D31R K65P G100D | 4.77 / 4.41 / ND | 4.59 | 7/9 (4.81)
A61S G104H F106H | 0.68 / 0.80 / 0.18 | 0.55 | 1/9 (3.55)
F29P V64N F106H | 5.65 / ND / 5.55 | 5.60 | 3/9 (4.84)
D30R M34E G50L | ND / ND / ND | ND | 1/9 (5.10)
F29H G59K V99W | ND / 4.77 / ND | 4.77 | 2/9 (4.23)
D30L G104I | 1.55 / 1.75 / 2.11 | 1.80 | 0/9
S63P V64P D107E | ND / ND / ND | ND | 0/9
H35L Y60D G104T | 4.66 / 4.61 / ND | 4.63 | 3/9 (4.50)
M34F H35R G103V | 3.84 / ND / 5.23 | 4.53 | 3/9 (4.11)
W53F A61D | 2.08 / 2.32 / 2.01 | 2.13 | 2/9 (4.52)
S57D I58F Y105M | ND / ND / ND | ND | 0/9
D31I H35I V99P | ND / ND / ND | ND | 0/9
G50K A61C S63A | 4.95 / ND / 5.41 | 5.18 | 5/9 (4.50)
T28Q G103R Y105S | 1.73 / 2.33 / 1.25 | 1.77 | 0/9
F27C K65F | ND / ND / ND | ND | 1/9 (3.42)
N54F S55I G56W | ND / ND / ND | ND | 0/9
F29G A61W V99T | 5.07 / ND / 5.00 | 5.04 | 2/9 (4.54)
S55F V99Y Y105D | 6.54 / ND / ND | 6.54 | 5/9 (5.14)
N54P G104I | ND / ND / ND | ND | 0/9
T28H Y105Q | 0.63 / 0.44 / 0.00 | 0.36 | 1/9 (3.63)
I51C A61Q Y108E | 4.44 / 5.45 / ND | 4.95 | 2/9 (4.53)
F29M A33W S55C | ND / ND / 3.65 | 3.65 | 1/9 (4.40)
V64S Y105M | 4.55 / ND / ND | 4.55 | 2/9 (5.07)
Y32H Y60S D107H | ND / ND / ND | ND | 1/9 (3.86)
F27A V99D | ND / ND / ND | ND | 2/9 (4.05)
V64M F106H | ND / ND / ND | ND | 1/9 (4.96)
Y60Q G104W | 3.28 / ND / ND | 3.28 | 0/9
M34V G50K I51K | ND / ND / ND | ND | 0/9
F29I D107S | 1.81 / 1.77 / 1.49 | 1.69 | 5/9 (4.48)
G26I Y32N G104K | 4.35 / ND / 4.68 | 4.51 | 1/9 (5.47)
G56P G59S V99C | 4.53 / 5.96 / ND | 5.24 | 1/9 (3.80)
F29K Y32F S55K | 3.59 / ND / ND | 3.59 | 0/9

The first 4 entries again:

changes,log10 Kd (nM) by replicate,"mean, log10 nM",signal with controls
M34L Y60K,ND / ND / ND,ND,2/9 (4.36)
G100F G102H D107S,ND / ND / ND,ND,1/9 (4.25)
G26N T28L A61D,5.93 / 5.07 / 5.39,5.46,5/9 (4.90)
M34L W53V N54F,ND / ND / ND,ND,0/9

Background: pairings of library AAYL51 with three empty control strains gave a value in 21% of cases (median 4.54, 5th percentile 3.26). Values in that range, when seen in few replicates, are hard to tell from nonspecific mating. For each scFv, signals with the empty controls are counted beside the result, with their mean in brackets. For reference, the parent read 1.86 as the reference entry and 0.88 as a member of this library.